Reference: US20030021772A1, “Method for treating effects of sleep deprivation and jet lag with NADPH and NADPH” (priority 2001, published 2003)

Experiment: Stability at acidic pH
Assay type: physicochemical
Settings: pHs below 7, as in the human stomach
Excerpt: Suitable oral forms of NADH and NADPH which can be used in the practice of the present invention are described in my U.S. Pat. No. 5,332,727, the disclosure of which is incorporated herein by reference. Both NADH and NADPH are very unstable at pHs below 7 which prevail within the confines of the human stomach. Therefore, when used in oral form, these substances must be coated with an acid-stable protective film so that they can survive the stomach environment for subsequent absorption by the intestine. Suitable acid-stable coatings are known in the art and can be applied by a conventional coating process after the active ingredients are formed into a tablet or capsule. Examples of suitable coatings are: cellulose acetate phthalate; polyvinylacetate phthalate; hydroxyl-propyl-methyl cellulose phthalate; methacryllic acid copolymers; fat-wax; shellac; zein; aqua-coating; and surerelease. Another possibility for the coating is a solution of a phthalate and a lack dry substance in isopropanol. An example of a suitable lack dry substance is sold under the name EUDRAGIT™ by Rohm Pharma. Alternatively, a protein coating in an aqueous medium may be applied. However, a sugar-coating should not be used because it will destabilize NADH.

With “nicotinamide-adenine-dinucleotide phosphate [NADPH]” the “stability at pHs below 7” value was “very unstable”.
